# PMC5091859, “Protein Translation Enzyme lysyl-tRNA Synthetase Presents a New Target for Drug Development against Causative Agents of Loiasis and Schistosomiasis” (PLoS Neglected Tropical Diseases, 2016)
# Sequences of proteins named here, by UniProt entry; tags and fusion partners are left off. Residues count along the entry.
# UniProt A0A1I7VQ84, 78-599 V330Q/S346T: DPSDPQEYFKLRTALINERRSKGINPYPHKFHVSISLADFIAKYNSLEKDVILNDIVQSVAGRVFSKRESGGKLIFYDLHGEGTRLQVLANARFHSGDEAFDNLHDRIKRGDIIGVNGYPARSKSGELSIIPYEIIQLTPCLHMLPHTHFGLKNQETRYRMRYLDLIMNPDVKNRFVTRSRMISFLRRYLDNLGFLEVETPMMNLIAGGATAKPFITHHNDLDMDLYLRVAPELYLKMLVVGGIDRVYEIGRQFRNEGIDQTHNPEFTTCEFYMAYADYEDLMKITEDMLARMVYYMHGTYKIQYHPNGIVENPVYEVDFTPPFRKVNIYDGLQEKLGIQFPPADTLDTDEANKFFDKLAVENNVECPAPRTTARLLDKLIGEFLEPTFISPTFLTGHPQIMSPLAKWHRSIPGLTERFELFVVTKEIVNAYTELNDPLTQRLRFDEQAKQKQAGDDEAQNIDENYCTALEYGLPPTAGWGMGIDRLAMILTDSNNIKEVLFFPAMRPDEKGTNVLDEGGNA
# Where two headings read alike, the source gives them in different places.
# Key:
# [1] = target: T1, Human-like LlKRS V329Q/S346T mutant (Loa loa, UniProt A0A1I7VQ84); experiment: biochemical
# [2] = target: T1, Human-like LlKRS V329Q/S346T mutant; type: binding; conditions: 1 mM L-lysine
smiles,measurement,setting,value
C[C@H]1CCC[C@H](C[C@H]2Cc3cc(O)cc(O)c3C(=O)O2)O1 [cladosporin],IC50,[1],1370 nM
same,Thermal shift of human-like LlKRS,"[2]; cladosporin 200 μM, KRS 2 μM (hundred fold)",7.2 °C
same,Thermal shift of human-like LlKRS,"[2]; ligand 20 μM, KRS 2 μM (ten fold)",5.3 °C
